Earlier results, collected in US20240180818A1, “SKIN CARE FORMULATIONS WITH HYDROPHILIC ACTIVE INGREDIENT” (Metselaar Amsterdam Beheer B.V., priority 2021, published 2024).

Tested on: young adult rats of both sexes

## tocopheryl polyethylene glycol 1000 succinate [TPGS]
  oral LD50: more than 7 g/kg
